Measured values reported in US20250230247A1 (DREN BIO, published 2025).

Columns and labels:
[1] = biological target: T1, human Dectin-1 (biosensor tests of Tables 3, 4A and 9; construct not stated) (human, UniProt Q9BXN2 66-247, limits assumed); assay: Fab K dis, run 1
T1 construct: also called hDectin-1
T1 sequence (looked up): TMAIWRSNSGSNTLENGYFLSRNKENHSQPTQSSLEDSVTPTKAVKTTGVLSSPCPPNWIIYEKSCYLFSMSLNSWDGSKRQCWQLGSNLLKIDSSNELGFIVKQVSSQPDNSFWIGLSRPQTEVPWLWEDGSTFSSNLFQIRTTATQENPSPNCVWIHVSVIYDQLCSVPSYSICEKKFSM

[2] = biological target: T1, human Dectin-1 (biosensor tests of …); assay: Fab K dis, run 3
[3] = biological target: T1, human Dectin-1 (biosensor tests of …); assay: Fab K dis, run 2
[4] = biological target: T1, human Dectin-1 (biosensor tests of …); assay: Fab K dis, average of 3

- koff [1]: 0.00556 s⁻¹
- koff [2]: 0.00267 s⁻¹
- koff [3]: 0.00204 s⁻¹
- koff [4]: 0.00342 s⁻¹
B1: 2M24A.29 hFab H7 (Fab, V domains shown)
VH: not shown
VL: DIQMTQSPSSVSASVGDRVTITCRASQGISSWLAWYQQKPGKAPKLLIFGASSLQSGVPSRFSGSGSGTDFTLTVSSLQPEDFATYYCQQAYSFPFTFGPGTKVDIE
notes: Fab; also called 2M24.H7
